Hits are enriched below; roughly 2.3% of the tested compounds scored in any of these assays.
A549 tox-1: kills or reduces viability of A549 cells in Nrf2 counter-screen; Potency, µM (titrated, usually from 46 µM), hits mostly inhibitors; actives 0.16% (n = 390,000); A549 ARE-Fluc cells, CellTiter-Fluor viability, 18-24 h
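A549 ARE_Fluc cells in 5% FBS OPTI-MEM were exposed to compounds in concentration-response for 18-24 h at 37 deg C. Viability was read by CellTiter-Fluor fluorescence (Ex 405/Em 525) after 30 min, before the luciferase read.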
miR-21 reporter: miR-21 reporter, rising signal; Potency, µM (titrated, usually from 38.3 µM); AID 2288; 340,000 tested, under 10 active; HeLa miR-21 FLuc reporter, luciferase, 48 h; active = well fitted rising curve with a large enough effect; inconclusive = small, poorly fitted or top-dose-only effect; inactive = no such curve, though single readings can be large or run the other way;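 note: miR-21 action dims this reporter so a rising signal means less miR-21 action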
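Using DMEM plus 10% FBS, HeLa miR-21-FLuc cells are incubated with test compounds (final up to about 40uM) for 48 hours; firefly luciferase signal is then imaged following reagent-mediated lysis.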
Nrf2 activator: Nrf2 pathway activation; AREc32 ARE-luciferase reporter (MCF7-derived line), luminescence, 24 h; Potency, µM (doses to about 46.1 µM), hits mostly activators; actives 0.31% (n = 410,000); also: nearly all actives have a fitted effect of over 65% in size
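ARE activation measured as luciferase luminescence (Steady-Glo, 30 min RT) in AREc32_Fluc cells after 24 hr compound exposure at 37 deg C, 5% CO2; cells seeded overnight at 1000/well in OPTI-MEM, 5% FBS.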
Nrf2 block: blocks Nrf2 signaling | A549 ARE-Fluc reporter, luciferase luminescence, 18-24 h | actives 2.1% (n = 360,000) | Potency, µM (highest dose often 46 µM), hits mostly inhibitors | AID 504444; also: nearly all actives have a fitted effect of over 60% in size
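Nrf2 function is reported as luminescence of an ARE-controlled luciferase in A549 cells. Compounds were tested at several concentrations, and a CellTiter-Fluor read on the same wells flagged cytotoxicity.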
Mito fusion yeast: blocks mitochondrial division or promotes mitochondrial fusion; actives 0.23% (n = 320,000); S. cerevisiae fusion-defective mutant growth rescue, CellTiterGlo 48 h; AID 485298; Potency, µM (highest dose often 46.1 µM), hits mostly activators; also: nearly all actives have a fitted effect of over 45% in size
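Temperature-sensitive fusion-defective S. cerevisiae (e.g. fzo1-1, mgm1-5) were grown with compound in YPEG medium (3% ethanol, 3% glycerol) for 48 hours at 37C. Growth rescue was measured as viability by CellTiterGlo luminescence after 10 minutes at ambient.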
FLuc counter 3: counter-screen for Nrf2 inhibitors: firefly luciferase enzyme inhibition | AID 720522 | purified firefly luciferase, luminescence inhibition | actives 4% (n = 1,400) | shares compounds with Nrf2 block | Potency, µM (top dose mostly 57.5 µM), usual class: inhibitors; also: nearly all actives have a fitted effect of over 65% in size
A549 tox-2: A549 cytotoxicity, Nrf2 inhibitor counterscreen | shares compounds with Nrf2 block | A549 ARE-Fluc cells, cytotoxicity counterscreen | Potency, µM (doses to about 46.1 µM), hits mostly inhibitors | actives 2% (n = 1,400) | AID 720523;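 also: cells exposed to compounds for 18 to 24 hours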
Nrf2 ARE inh: Nrf2 inhibition confirmed, A549 ARE-luciferase; shares compounds with Nrf2 block; A549 ARE-firefly luciferase reporter, luminescence; Potency, µM (series often up to 46.1 µM), usual class: inhibitors; actives 74% (n = 1,400); also: nearly all actives have a fitted effect of over 65% in size
Each line names hits and unclear results; the compound was inactive in the other large screens (follow-up assays come after a bar, where shown). Unless noted, calls follow the shape of the dose curve; as a rule, active = well fitted curve in the direction sought with a large enough effect; inconclusive = small, poorly fitted or top-dose-only effect, or another doubt; inactive = no such curve, though single readings can be large; an effect the other way counts as inactive or inconclusive.

CC(=O)OCC(=O)C1(O)CCC2C3CC(F)C4=CC(=O)CCC4(C)C3C(O)CC21C (stereo unspecified)	Nrf2 block 0.065µM (no result: miR-21 reporter, Mito fusion yeast) | FLuc counter 3 inactive | A549 tox-2 inactive | Nrf2 ARE inh 0.018µM
CCCC(=O)O[C@]1(C(=O)CO)CC[C@H]2[C@@H]3CCC4=CC(=O)CC[C@]4(C)[C@H]3[C@@H](O)C[C@@]21C	Nrf2 block 0.023µM | FLuc counter 3 inactive | A549 tox-2 inactive | Nrf2 ARE inh 0.015µM
O=[N+]([O-])c1ccc(S(=O)(=O)N2CCN(c3nc(-c4cccs4)nc4ccccc34)CC2)cc1	Nrf2 block inconclusive (no result: miR-21 reporter, Nrf2 activator, Mito fusion yeast)
Cc1cc(/C=C\c2ccc3cc(N(C)C)ccc3[n+]2C)c(C)n1-c1ccccc1	A549 tox-1 5.8µM, Nrf2 block 1.2µM (no result: miR-21 reporter) | FLuc counter 3 inconclusive | A549 tox-2 7.3µM | Nrf2 ARE inh 1.3µM
COc1ccccc1N1CCN(C(=O)CN2C(=O)COc3ccc(S(=O)(=O)N4CCOCC4)cc32)CC1	none (no result: Mito fusion yeast)
CC1(C)CC(N2CCCCC2)=CC(=[N+]2CCCCC2)C1	miR-21 reporter inconclusive, Nrf2 block 2.3µM, Mito fusion yeast inconclusive | FLuc counter 3 inactive | A549 tox-2 inactive | Nrf2 ARE inh 9.2µM
CCCN(CCC)C1=CC(=[N+]2CCCC2)CC(C)(C)C1	miR-21 reporter inconclusive, Nrf2 block 2.1µM | FLuc counter 3 inactive | A549 tox-2 inactive | Nrf2 ARE inh 4.6µM
CN(C)NC1=CC(=[N+]2CCCC2)CC(C)(C)C1	none
CC1(C)CC(N2CCOCC2)=CC(=[N+]2CCOCC2)C1	none
CNc1c(Br)cc(C(O)C2=CCc3ccccc32)cc1Br (stereo unspecified)	none (no result: A549 tox-1, miR-21 reporter, Nrf2 activator, Nrf2 block, Mito fusion yeast) | FLuc counter 3 inactive | A549 tox-2 inactive | Nrf2 ARE inh 4.6µM
O=C(Nc1ccc2c(c1)OCCO2)c1cccc2nc3ccccc3nc12	A549 tox-1 21µM, Nrf2 block 2.6µM | FLuc counter 3 inconclusive | A549 tox-2 12µM
Cc1nn(C)c(C)c1CN(Cc1nc(CCC(C)C)no1)C(C)C	Nrf2 block 1.3µM | FLuc counter 3 inactive | A549 tox-2 inactive | Nrf2 ARE inh inconclusive
O=C(COc1ccccc1Cl)NCCNC(=O)c1cccnc1	none
O=C(COc1ccccc1Cl)NCCCNC(=O)c1cccnc1	miR-21 reporter inconclusive, Nrf2 block 3.7µM | FLuc counter 3 inactive | A549 tox-2 inactive | Nrf2 ARE inh 9.2µM
Cc1ccc(NC(=O)C2CCCN(C(=O)c3ccc(Cl)cc3)C2)cc1S(=O)(=O)N1CCOCC1 (stereo unspecified)	A549 tox-1 inconclusive, Nrf2 block 7.3µM | FLuc counter 3 inactive | A549 tox-2 inactive | Nrf2 ARE inh 13µM
COc1ccc(OC)c(Nc2nc(-c3sc(NC(=O)C(C)(C)C)nc3C)cs2)c1	Nrf2 block 8.2µM | FLuc counter 3 inactive | A549 tox-2 inactive | Nrf2 ARE inh inconclusive
COc1ccc(Cl)cc1Nc1nc(-c2sc(NC(=O)C(C)(C)C)nc2C)cs1	miR-21 reporter inconclusive, Nrf2 block 4.1µM | FLuc counter 3 inactive | A549 tox-2 inactive | Nrf2 ARE inh 1.8µM
CCc1ccc(OCC(=O)N(Cc2ccc(C)o2)C2CCS(=O)(=O)C2)cc1 (stereo unspecified)	none (no result: Mito fusion yeast)
O=C(Nc1ccc(C(=O)NC2CCCCC2)cc1)c1cccnc1	Nrf2 block inconclusive | FLuc counter 3 inactive | A549 tox-2 inactive | Nrf2 ARE inh inconclusive
Cc1nn(CCC(=O)N2CCN(c3ccccc3F)CC2)c(C)c1S(=O)(=O)N1CCCC1	none (no result: Nrf2 block, Mito fusion yeast)
CC(=O)c1ccc(S(=O)(=O)N2CCN(CCOc3ccc(Br)cc3)CC2)cc1	A549 tox-1 inconclusive, Nrf2 block 4.1µM (no result: miR-21 reporter) | FLuc counter 3 inactive | A549 tox-2 inactive | Nrf2 ARE inh 5.8µM

Screening data: PubChem, National Center for Advancing Translational Sciences (NCATS)
